This is one part of the list.

For the experiment, the system named is A. baumannii ATCC 17978. Description: relative growth (fraction of control); higher = less inhibition. The settings on record: 50 µM.
For `CCN(CC)CC#CCOC(=O)C(O)(c1ccccc1)C1CCCCC1.Cl` (stereo unspecified), the relative growth turned out to be 1.22.

In turn, `O=C1[C@@H]2[C@@H](C(=O)N1CCO)[C@@H]1C=C[C@@H]2C1` gave a relative growth of 1.11. On to `O=C(Cc1cccs1)N1c2ccccc2Sc2ccccc21`, for which the relative growth amounted to 1.03.

Consider `O=C(O)Cc1ccc(-c2ccccc2)cc1`, for which the relative growth was determined as 0.924. With `O=C(O)c1ccc(O)c(O)c1` the figure was 1.19; with `COc1ccccc1CNC(=O)C[C@@H]1CC[C@@H]2[C@H](COC[C@H](O)CN2C(=O)Nc2ccc(Cl)cc2)O1`, 0.927; with `c1ccc(Oc2cccc(Oc3ccccc3)c2)cc1`, 0.884. Next, `COCC(=O)N(C)C[C@H]1Oc2cc(C#CC(C)(C)O)ccc2S(=O)(=O)N([C@H](C)CO)C[C@H]1C`: 1.08; `COCC(=O)N1C[C@@H](C)[C@H](OC)CN(C)C(=O)c2ccc(NC(=O)c3cc(C)on3)cc2OC[C@@H]1C`: 1.03; `CN(C)CC(=O)N[C@@H]1CC[C@@H](CCn2cc(CN(C)C)nn2)O[C@@H]1CO`: 1.02.

Compound `CC(C)C#Cc1ccc2c(c1)O[C@H](CN(C)C(=O)c1cccc(F)c1)[C@@H](C)CN([C@H](C)CO)S2(=O)=O` displayed a relative growth of 0.922. With `CC(=O)N1CCC2(CCCN2)CC1` the figure was 1.03; with `O=C(O)CCN=C1NC(=O)CS1`, 1.1.

For the compound `C=CC[C@H](CC(=O)NCCO)C(=O)N[C@H](COC(=O)[C@H](CC=C)CC(=O)OC(C)(C)C)Cc1c[nH]c2ccccc12`, the relative growth turned out to be 0.863. With `COCCNC(=O)C[C@H]1CC[C@H](NS(=O)(=O)c2ccc(C)cc2)[C@@H](CO)O1` the figure was 1.03.

Compound `OC[C@@H](O)[C@@H](O)[C@@H](O)/C=N/Nc1ccccc1` had a relative growth of 0.949. With `COc1ccc(CCNC(=O)c2cc3c(=O)n4cccc(C)c4nc3n(CCCN3CCOCC3)c2=N)cc1` the figure was 0.898; with `CCCCCCCCCCCCCCCCCCOCC(O)CO` (stereo unspecified), 1.03; with `N#Cc1ccc(C(c2ccc(C#N)cc2)n2cncn2)cc1`, 1.06. The compound `O=C(C[C@H]1C[C@@H]2c3cc(NC(=O)Nc4ccc(C(F)(F)F)cc4)ccc3O[C@@H]2[C@@H](CO)O1)NC1CCCCC1` gave a relative growth of 1.16. `Clc1ccc(CCC(Cn2ccnc2)Sc2c(Cl)cccc2Cl)cc1` (stereo unspecified) came in with a relative growth of 0.997.

As for `CCCCCc1c2c(cc(O)c1C(=O)O)OC(=O)c1c(cc(OC)cc1C(=O)CCCC)O2`, the relative growth came to 1.24. With `CC(C)CC(N)=O` the figure was 0.913; with `O=C(O)/C=C/C(=O)NN1C(=O)c2ccccc2C1=O`, 0.889; with `C[C@H](CO)N1C[C@H](C)[C@@H](CN(C)S(=O)(=O)c2ccc(F)cc2)Oc2cc(Br)ccc2S1(=O)=O`, 0.988. `C/C(=C\CC[C@@H](C)[C@H]1C[C@@H](O)[C@@]2(C)[C@H]3CC[C@H]4C(C)(C)[C@@H](O[C@@H]5O[C@@H](CO[C@H]6O[C@@H](CO)[C@@H](O)[C@@H](O)[C@@H]6O)[C@@H](O)[C@@H](O)[C@@H]5O)CC[C@@]45C[C@@]35C[C@@H](O)[C@]12C)C(=O)O[C@H]1O[C@@H](CO)[C@@H](O)[C@@H]1O` gave a relative growth of 1.02. For `CO[C@H]1CN(C)C(=O)c2cc(NC(=O)NC3CCCCC3)ccc2OC[C@@H](C)N(CCc2ccccc2)C[C@@H]1C`, the relative growth was found to be 1.05.

In turn, `CC(C)NCC(O)COc1cccc2ccccc12.Cl` (racemic) displayed a relative growth of 0.67. With `COc1c2occc2cc2ccc(=O)oc12` the figure was 0.93; with `OCCN1C[C@@H](O)[C@@H](O)[C@@H](O)[C@@H]1CO`, 1.05.

In the case of `C[C@@H](NCCC(c1ccccc1)c1ccccc1)c1ccccc1`, the relative growth worked out at 0.743. With `O=C(C[C@@H]1C=C[C@@H](NC(=O)Nc2ccc3c(c2)OCO3)[C@H](CO)O1)NCCCN1CCOCC1` the figure was 0.938. With `Cc1ccc(-c2ccc3c(c2)O[C@@H](CN(C)C(=O)NC(C)C)[C@@H](C)CN([C@H](C)CO)S3(=O)=O)cc1` the figure was 0.794; with `Oc1ccc2ccccc2c1`, 0.613; with `Cc1cccc([C@@H](N)c2nccn2C)c1`, 0.862.

Turning to `Nc1ccc(-n2nn[nH]c2=S)cc1`, the relative growth came to 1.01. As to `O=C(N[C@H]1CC[C@@H](CCNS(=O)(=O)c2ccc(F)cc2)O[C@H]1CO)C1CC1`, the relative growth came to 0.926. For the compound `CC(=O)Oc1ccccc1C(=O)Nc1ncc([N+](=O)[O-])s1`, the relative growth worked out at 0.81.

In the case of `COC(=O)c1cc(OC)c(OC)c(OC)c1`, the relative growth came out at 0.944. With `CCCN1C(=O)C[C@@H](N2CCOCC2)C1=O` the figure was 1.02.

`CO[C@H]1CN(C)C(=O)c2ccc(NS(C)(=O)=O)cc2OC[C@@H](C)N(C(=O)C2CCOCC2)C[C@@H]1C` yielded a relative growth of 1.14. With `CCOC(=O)CCc1n[nH]c(=O)[nH]c1=O` the figure was 0.872; with `Oc1cc(O)c2c(c1)O[C@H](c1ccc(O)c(O)c1)[C@@H](O)C2` [CIANIDANOL [+-catechin]], 0.94. Next, `COCc1cc(C)nc(N)c1C#N`: 0.911. Compound `N#Cc1cc(F)cc(Oc2ccc(S(=O)(=O)C(F)F)c3c2CC(F)(F)[C@@H]3O)c1.N#Cc1cc(F)cc(Oc2ccc(S(=O)(=O)C(F)F)c3c2CC(F)(F)[C@H]3O)c1` returned a relative growth of 1.13. The compound `CC1(C)OC(=O)C(OCC2CC2)=C1c1ccc(S(C)(=O)=O)cc1` had a relative growth of 0.997. Regarding `CCCCC(O)c1ccccc1` (stereo unspecified), the relative growth turned out to be 0.987. Next, `CN(C)Cc1cn(CC[C@H]2CC[C@@H](N)[C@H](CO)O2)nn1`: 0.939; `C/N=C1/S[C@@H]2CS(=O)(=O)C[C@@H]2N1C`: 0.898; `CO[C@H]1CN(C)C(=O)c2ccc(NS(=O)(=O)c3cn(C)cn3)cc2OC[C@@H](C)N(Cc2cccc(F)c2)C[C@H]1C`: 0.891. With `CC(C)(C(=O)O)c1ccc([C@@H](O)CCCN2CCC(C(O)(c3ccccc3)c3ccccc3)CC2)cc1` the figure was 0.931; with `CO[C@H]1CN(C)C(=O)c2ccc(NC(=O)C3CCOCC3)cc2OC[C@@H](C)N(Cc2cccnc2)C[C@@H]1C`, 1.07. Next, `COc1cccc(NC(=O)N[C@@H]2CC[C@@H](CC(=O)N3CCOCC3)O[C@H]2CO)c1`: 0.973; `Cc1c(C)c2ccc(O[C@@H]3O[C@H](CO)[C@H](O)[C@H](O)[C@H]3O)cc2oc1=O`: 0.963. The compound `C=CCOC(=O)[C@H]1[C@@H]2C(=O)O[C@@H](c3ccccc3)[C@@H](c3ccccc3)N2[C@@H](c2ccc(OCCOC(=O)[C@H]3C[C@H]4C(=O)NCC(=O)N4[C@H]3c3cccc(OCCO)c3)cc2)[C@]12C(=O)Nc1ccc(I)cc12` had a relative growth of 1.08.

For `COc1cccc(NC(=O)N[C@@H]2C=C[C@@H](CC(=O)N3CCOCC3)O[C@H]2CO)c1`, the relative growth amounted to 1.03.

The record behind these values is published antibiotic growth screens (doi:10.1038/s41589-023-01349-8).
